Values of other authors, collected in patent US10159670B2, “Methods of diagnosing and treating motor neuron diseases and other cellular stress-related diseases” (priority 2012, dated 2018).

Experiments:
SOD1G93A mice = details: cited from earlier work
ALS patients = details: several clinical trials; cited from earlier work

In the case of Nc1nc2ccc(OC(F)(F)F)cc2s1 [Riluzole], the survival benefit (SOD1G93A mice) is given as “lacks survival benefit” and the “efficacy for the survival of ALS patients” value (ALS patients) is given as “only slight efficacy”.
